Assay: Tolerability of earlier antibiotic therapy in the patient
Type: in vivo, human
Conditions: single patient, treatment before the start of dalbavancin
Description: We report the case of a patient who required initiation of dalbavancin therapy in November 2024 for infective endocarditis of a biological aortic valve (replaced April 2024) caused by Corynebacterium striatum. […] Due to a high surgical risk, the patient was deemed ineligible for repeat cardiac surgery.

daptomycin
tolerability in the patient: well tolerated
